Experimental data published in patent US20040063686A1, “Carboxamide compounds and their use as antagonists of a human 11cby receptor” (priority 2000, published 2004).

Chains of the proteins cited; added tags and fusions are not shown.
UniProt Q99705, whole entry: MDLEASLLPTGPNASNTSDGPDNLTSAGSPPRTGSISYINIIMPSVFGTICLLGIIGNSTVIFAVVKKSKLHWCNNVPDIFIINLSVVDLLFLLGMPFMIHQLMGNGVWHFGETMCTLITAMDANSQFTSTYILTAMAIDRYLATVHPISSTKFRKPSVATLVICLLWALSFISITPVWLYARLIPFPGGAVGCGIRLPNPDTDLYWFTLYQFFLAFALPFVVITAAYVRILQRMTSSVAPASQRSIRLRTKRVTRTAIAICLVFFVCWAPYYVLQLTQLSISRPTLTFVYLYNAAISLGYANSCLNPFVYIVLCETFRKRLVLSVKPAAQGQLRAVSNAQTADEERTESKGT

Molecular target: 11CBy receptors (Homo sapiens, UniProt Q99705)
Experiment: Radioligand binding assay, [125I]-Melanin Concentrating Hormone competition on membranes from HEK293 cells stably expressing 11CBy receptors
Conditions: [125I]-MCH 0.22 nM, 45 min at 37° C., pH 7.4, pKi calculated from IC50

CC(C)N(CCOc1ccc(NC(=O)c2ccc(C3CCCCC3)cc2)c(F)c1)C(C)C
pKi range: 7.5-7.8
